# Source: patent US6664231B1, “Anti-fungal peptides” (priority 1993, dated 2003)
# How the values were obtained:
# [1] = system: C. albicans (CA-1, Strain SLU-1); assay: Radial diffusion assay; assay type: cell-based, Candida albicans; settings: pmoles of peptide added to well to achieve a 30 mm^2 zone, PROBIT analysis, crude or purified (P′) peptide
# Description: In the radial diffusion assay procedures, the CA-1 cultures and peptide solutions were prepared as in the broth assay procedure described above. Ten mL of molten underlayer agarose comprising 3% Sabouraud Dextrose broth, 1% agarose (Pharmacia, Piscataway, N.J.), 0.02% Tween 20, and 10 mM sodium phosphate at pH 7.4, was added to polystyrene tubes and maintained in a 56° C. water bath until the addition of yeast. Tubes were cooled to approximately 45° C., yeast were added to give a final concentration of 1×10^6 CFU/mL, and the tubes were mixed again by inverting. The contents were poured into level square petri dishes and distributed evenly. […] A series of wells were punched into the hardened agarose using a sterile 3 mm punch attached to a vacuum apparatus.
# Peptides to be assayed were 2-fold serially diluted in Dulbecco's PBS (D-PBS) starting from a concentration of approximately 1 mg/mL. Five μL of each dilution were added to each well and the plates were incubated at 37° C. for 3 hours. An overlayer of 10 mL of molten agarose comprising 6% Sabouraud Dextrose broth, 1% agarose, and 10 mM sodium phosphate, pH 7.4, (at approximately 45° C.) was then added and plates were incubated overnight at 37° C. Following this overnight incubation, a dilute Coomassie solution was poured into the plates and allowed to stain for 24 hours.
# Clear zones of growth inhibition around each well were measured with calipers. The actual area of growth inhibition (mm^2) was calculated by subtracting the area of the well. Table 1 below sets out the results of the radial diffusion assays for tested peptides in terms of the number of picomoles (pmol) of peptide required to establish a 30 mm^2 area of growth inhibition calculated by PROBIT analysis (e.g., calculated from regression of the linear portion of log-concentration dose-response curve, log pmol/well vs. net area of inhibition).
# mouse RAW 264.7 cells = settings: for IC50 (toxicity/growth inhibition of peptide): RAW 264.7 cell growth inhibited by 50%
# Description: (§1) An in vitro LPS neutralization screening assay for evaluation of Domain III derived peptides was developed (as described in co-owned and co-pending U.S. patent application Ser. No. 08/306,473) which provides both a measure of efficacy of each peptide (EC50) and of the toxicity/growth inhibition of each peptide (IC50).
# (§2) The cells were counted and their concentration adjusted to 2×10^5 cells/mL and 100 μL aliquots were added to each well of a 96-well microtitre plate. […] This incubation was performed in the absence or presence of peptides in varying concentrations between 25 ng/mL and 50 μg/mL. […] Cell proliferation was quantitatively measured by the addition of 1 μCi/well [^3H]-thymidine 5 hours after the time of initiation of the assay. After the 15-hour incubation, labeled cells were harvested onto glass fiber filters with a cell harvester (Inotech Biosystems, INB-384, Sample Processing and Filter Counting System, Lansing, Mich.).
# [2] = system: mouse RAW 264.7 cells incubated with E. coli O113 LPS; settings: for In Vitro LPS Neutralization EC50: RAW 264.7 cells with E. coli O113 LPS, concentration reversing LPS growth inhibition by 50%
# Description: as §1, §2
# [3] = Serum stability, anti-fungal activity after serum incubation by radial diffusion bioassay; assay type: in vitro ADME, rat or human serum; settings: Activity in Serum t ½ (hr.)
# Description: For these serum stability experiments, peptides were prepared by solid phase peptide sythesis and purified to 94% or greater purity as described in Example 1. Blood was collected from metaphane anesthesized rats by aortic bleed into Vacutainer™ tubes and allowed to clot at room temperature for approximately 30 minutes, then centrifuged at 3000 rpm (about 1000×g) for 10 minutes at room temperature and the serum aspirated. In addition, frozen human serum (North American Biologics, Inc., Miami, Fla., cat. no. 2140, lot no. 94115) was thawed at room temperature and filtered through a 0.45 μm membrane before use.
# A 1 mg/mL solution of an exemplary XMP peptide to be tested was added to an equal volume of either rat or human serum described above and maintained at 37° C. At 0, 1, 2, and 4 hours, 100 μL were removed and processed by solid phase extraction for HPLC analysis as follows. Serum samples were prepared for HPLC using C-18 Sep-Pak cartridges (1 mL cartridge with 100 mg of sorbent, Waters Corp., Milford, Mass.). One hundred μL of serum sample were added to an equal volume of 1% TFA and mixed for 30 seconds on a Vortex mixer. The sample was then applied to a C-18 Sep-Pak cartridge that had been conditioned by washing with 1 mL of methanol followed by 1 mL Milli-Q water. Weakly reed components were eluted by washing with 1 mL of 0. 1% TFA. The bound peptide was eluted with two volumes of 250 μL 80% acetonitrile/0.065% TFA.
# The peptides identified and purified after serum incubation as described above were subjected to N-terminal peptide sequencing performed on an Applied Biosystems Model 477A/120A sequencer and to electrospray ionization mass spectrometry (ESI/MS) performed using a VG Biotech Bio-Q Mass Spectrometer. In addition, the peptides identified and purified after serum incubation as described above were also tested for their anti-fungal activity in a radial diffusion bioassay with Candida albicans SLU-1 strain as described in Example 2.
# [4] = system: Crytococcus Neoformans 13690; assay type: cell-based, Cryptococcus neoformans
# Description: In additional experiments, a fluorescence-activated cell sorter (FACS) based assay was developed to test the fungicidal activity of the peptides. […] Difco) agar. Several colonies were picked from the agar plate and inoculated into 5 mL of Sabouraud's Dextrose media in a sterile 10 mL polypropylene tube. The fungal cultures were incubated for about 18 hours at 30° C. […] The culture were centrifuged at 3000 rpm for 5 minutes (Sorvall RT 6000B). After centrifugation, the supernatant was decanted leaving the fungal pellets in the centrifuge tubes. The pellets were resuspended in 15 mL of SDB. Both suspensions were combined into one tube and mixed to generate a stock culture. […] After determining the concentration of the stock, appropriate dilutions were made with Sabouraud's Dextrose media to obtain 100 mL of 1×10^6 cell/mL. […] After the 1 hour incubation, all the tubes were centrifuged at 3000 rpm for 5 minutes. […] Louis, Mo.) in Dulbecco's PBS (DPBS, GIBCO, Grand Island, N.Y.) except the autofluorescence control, which was resuspended in DPBS alone. The tubes were mixed and incubated in the dark at room temperature for at least 20 minutes. […] The settings were adjusted appropriately to the following approximate parameters: Cells were analyzed (10,000 cells/tube) and their respective fluorescence determined. […] The population of dead (i.e., propidium iodide stained) fungal cells was determined by a fluorescence threshold between the negative control and positive control.
# [5] = system: Candida albicans (SLU-1 and ATCC strains); assay type: cell-based
# Description: (§3) The anti-fungal activity of Domain III derived peptides was evaluated against a variety of fungal species, including species of Candida. Cryptococcus, Fusarium, Trichophyton, and Aspergillus, by an additional assay protocol utilizing Alamar Blue. Alamar Blue is an indicator dye formulated to measure quantitatively the proliferation of a variety of human or animal cells, bacteria, or fungi. It consists of an oxidation-reduction (REDOX) indicator that yields a colorimetric change in response to metabolic activity. For these experiments, species of Candida and Cryptococcus were grown in Sabouraud's dextrose broth (SDB) overnight. Strains of filamentous fungi (Aspergilius, Fusanum, Trichophyton) were obtained by irrigation of a confluent culture from a petri dish. Cells were washed and adjusted to a concentration of 5.0×10^3/mL in fresh SDB. […] Controls included amphotericin B, fluconazole, ketoconazole and griseofulvin. Antifungal drugs were also diluted in the same manner. Assays were performed in 96-well microuiter plates. […] The wells to be plated were determined by OD590 readings. The lowest concentration of peptide which maintained the blue color (or OD reading) of the blank was chosen along with the next two higher concentrations. Plates were allowed to grow for 18-48 hours depending on the rate of growth of each fungus. Minimal fungicidal activity (MFC) was determined as a 99.9% killing of the starting inoculum.
# Aspergillus ATCC 13073 = assay type: cell-based
# Description: as §3
# [6] = system: Cryptococcus neoformans ATCC 13690; assay type: cell-based
# Description: as §3
compound,measurement,setting,value
CC[C@H](C)[C@H](NC(=O)[C@H](CCCCN)NC(=O)[C@H](CCCCN)NC(=O)[C@H](Cc1c[nH]cn1)NC(=O)[C@H](Cc1ccccc1)NC(=O)[C@H](CC(C)C)NC(=O)[C@H](CCC(N)=O)NC(=O)[C@@H](NC(=O)[C@H](CC(C)C)NC(=O)[C@H](Cc1c[nH]c2ccccc12)NC(=O)CNC(=O)[C@@H](NC(=O)[C@H](CCCCN)NC(=O)[C@H](CO)NC(=O)[C@H](CCCCN)NC(=O)[C@H](CO)NC(=O)[C@@H](NC(=O)[C@H](Cc1c[nH]cn1)NC(=O)[C@@H](NC(=O)[C@H](Cc1c[nH]cn1)NC(=O)[C@@H](N)C(C)C)C(C)C)[C@@H](C)CC)C(C)C)[C@@H](C)CC)C(=O)N[C@@H](CCC(=O)O)C(N)=O [XMP.5],C. albicans pmol/30 mm^2 zone,[1],>2151 pmol/30 mm^2 zone
same,IC50 (peptide concentration at which RAW cell growth was inhibited by 50%),mouse RAW 264.7 cells; concentrations tested 25 ng/mL to 50 μg/mL,not observed at the concentrations tested
same,EC50 (peptide concentration at which the growth inhibitory effect of LPS was reversed by 50%),[2]; LPS 1 ng/mL,5.3 ± 0.6 µg/mL
CC[C@H](C)[C@H](NC(=O)[C@H](C)NC(=O)[C@@H](NC(=O)CNC(=O)[C@@H](NC(=O)[C@H](CCCCN)NC(=O)[C@H](CO)NC(=O)[C@@H](N)CCCCN)C(C)C)C(C)C)C(=O)N[C@@H](CCC(N)=O)C(=O)N[C@@H](CC(C)C)C(=O)N[C@@H](Cc1ccccc1)C(=O)N[C@@H](Cc1c[nH]cn1)C(=O)N[C@@H](CCCCN)C(=O)N[C@@H](CCCCN)C(N)=O [XMP.268],C. albicans pmol/30 mm^2 zone,[1],308 pmol/30 mm^2 zone
same,C. albicans pmol/30 mm^2 zone,[1]; listed as XMP.268P′,63 pmol/30 mm^2 zone
same,half-life at 0.5 mg/mL,[3],15.3 h
CC[C@H](C)[C@H](NC(=O)[C@H](CC(C)C)NC(=O)[C@@H](N)Cc1c[nH]c2ccccc12)C(=O)N[C@@H](CCC(N)=O)C(N)=O [XMP.330],C. albicans pmol/30 mm^2 zone,[1],b (No detectable activity up to 5 μg/well)
same,IC50 (toxicity/growth inhibition of peptide),mouse RAW 264.7 cells,NA (NA for IC50 means no evidence of decreased RAW cell growth at up to 50 μg/ml)
same,In Vitro LPS Neutralization EC50,[2],>50 µg/mL
CC[C@H](C)[C@H](NC(=O)[C@H](CC(C)C)NC(=O)[C@H](Cc1c[nH]c2ccccc12)NC(=O)[C@@H]1CCCN1)C(=O)N[C@@H](CCC(N)=O)C(=O)N[C@@H](CC(C)C)C(=O)N[C@@H](Cc1ccccc1)C(=O)N[C@@H](Cc1c[nH]cn1)C(=O)N[C@@H](CCCCN)C(=O)N[C@@H](CCCCN)C(=O)O [XMP.353],"Activity of Peptides on Crytococcus Neoformans 13690, IC50",[4],0.37 µg/mL
same,C. albicans pmol/30 mm^2 zone,[1],"3,093 pmol/30 mm^2 zone"
same,C. albicans pmol/30 mm^2 zone,[1]; listed as XMP.353P′,463 pmol/30 mm^2 zone
same,half-life at 0.5 mg/mL,[3],0.9 h
same,"Minimum Fungicidal Concentration, Candida albicans SLU-1",[5],2.5 µg/mL
same,"Minimum Fungicidal Concentration, Aspergillus ATCC 13073",Aspergillus ATCC 13073,12.50 µg/mL
same,"Minimum Fungicidal Concentration, Cryptococcus neoformans ATCC 13690",[6],0.63 µg/mL
CC[C@H](C)[C@H](NC(=O)[C@H](CC(C)C)NC(=O)[C@H](C)NC(=O)CNC(=O)[C@@H](NC(=O)[C@H](CCCCN)NC(=O)[C@H](CO)NC(=O)[C@H](CCCCN)NC(=O)[C@@H]1CCCN1)C(C)C)C(=O)N[C@@H](CCC(N)=O)C(=O)N[C@@H](CC(C)C)C(=O)N[C@@H](Cc1ccccc1)C(=O)N[C@@H](Cc1c[nH]cn1)C(=O)N[C@@H](CCCCN)C(=O)N[C@@H](CCCCN)C(=O)N[C@@H](CC(=O)O)C(N)=O [XMP.407P],IC50 (toxicity/growth inhibition of peptide),mouse RAW 264.7 cells,NA (NA for IC50 means no evidence of decreased RAW cell growth at up to 50 μg/ml)
same,In Vitro LPS Neutralization EC50,[2],NA (NA for EC50 means no evidence neutralization of LPS at up to 50 μg/ml)
